Measurements: IntAct's records for PubMed 16282588

B1: G/T mismatch-specific thymine DNA glycosylase (Homo sapiens), Q13569 (parent)
chain: MEAENAGSYSLQQAQAFYTFPFQQLMAEAPNMAVVNEQQMPEEVPAPAPAQEPVQEAPKGRKRKPRTTEPKQPVEPKKPVESKKSGKSAKSKEKQEKITDTFKVKRKVDRFNGVSEAELLTKTLPDILTFNLDIVIIGINPGLMAAYKGHHYPGPGNHFWKCLFMSGLSEVQLNHMDDHTLPGKYGIGFTNMVERTTPGSKDLSSKEFREGGRILVQKLQKYQPRIAVFNGKCIYEIFSKEVFGVKVKNLEFGLQPHKIPDTETLCYVMPSSSARCAQFPRAQDKVHYYIKLKDLRDQLKGIERNMDVQEVQYTFDLQLAQEDAKKMAVKEEKYDPGYEAAYGGAYGENPCSSEPCGFSSNGLIESVELRGESAFSGIPNGQWMTQSFTDQIPSFSNHCGTQEQEEESHA

Tests used:
[1] = variants of: B1; conditions: with ncoa1_human NCOA1, Q15788
esr1_mouse Esr1, P19785 = variants of: B1; conditions: with esr1_mouse Esr1, P19785

effect of a mutation on the interaction [1] | effect of a mutation on the interaction (esr1_mouse Esr1, P19785) | Variant
with no effect | with no effect | C351A;C356A
decreasing interaction strength | with no effect | Y334F;Y338F
decreasing interaction strength | with no effect | Y342A;Y346A
decreasing interaction strength | with no effect | Y342F;Y346F
disrupting interaction strength | with no effect | Y334F;Y338F;Y342F;Y346F
decreasing interaction strength | with no effect | Y334A;Y338A
disrupting interaction strength | with no effect | Y334A;Y338A;Y342A;Y346A
